Values of other authors as cited in US20240165099A1, “METHODS FOR THE TREATMENT AND PREVENTION OF DISEASES OR INFECTIONS WITH MCP-1 INVOLVEMENT BY ADMINISTRATION OF TAFENOQUINE” (60 DEGREES PHARMACEUTICALS LLC, priority 2022, published 2024).

Tested on: blood stages of P. falciparum
Settings: Baird et al. 2002; McCarthy et al. 2019; cited from earlier work

Which “activity against the blood stages of P. falciparum” value does the source give for `COc1cc(NC(C)CCCN)c2ncccc2c1` (stereo not shown) [Primaquine] here?
The value was “only week activity”.
